Data published in PMC3475795.

Biological target: V5 epitope-tagged wild-type epidermal growth factor receptor (EGFR)
Test: proximity ligation

fold IR-induced increase in PLA associations (HBEC): 200 fold
Substance: DNA-PKcs of human cell lines (a stretch of the chain, chain not printed) (enzyme)
